Measurements taken from ChEMBL document CHEMBL2062483, “Design of Bcl-2 and Bcl-xL inhibitors with subnanomolar binding affinities based upon a new scaffold” (J Med Chem, 2012).
pIC50: −log10 of the molar value.

Amino acid sequences for entries named in this document (tags omitted).
UniProt Q07820, whole entry: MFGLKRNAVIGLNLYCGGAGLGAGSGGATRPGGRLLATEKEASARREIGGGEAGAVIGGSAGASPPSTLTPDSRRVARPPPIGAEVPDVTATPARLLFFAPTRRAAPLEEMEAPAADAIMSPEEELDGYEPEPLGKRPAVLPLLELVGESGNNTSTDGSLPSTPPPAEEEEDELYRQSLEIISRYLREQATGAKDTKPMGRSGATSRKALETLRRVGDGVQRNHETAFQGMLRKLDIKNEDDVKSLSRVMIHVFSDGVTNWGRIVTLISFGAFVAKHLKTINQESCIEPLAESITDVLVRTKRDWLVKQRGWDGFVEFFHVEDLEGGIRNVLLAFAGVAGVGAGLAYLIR

Molecular target: Induced myeloid leukemia cell differentiation protein Mcl-1 (Homo sapiens, UniProt Q07820)
Assay: Binding affinity to N-terminus 8X His-tagged human Mcl1 expressed in Escherichia coli BL21 (DE3) cells after 2 hrs by fluorescence polarization assay
Summary of the method: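 Competitive FP binding: serially diluted inhibitor in DMSO added to preincubated protein/fluorescent probe complex, 2 h at room temperature with gentle shaking. Final protein/probe: Bcl-2 1.5 nM/1 nM; Bcl-xL 10 nM/2 nM; Mcl-1 20 nM/2 nM. […] IC50 from nonlinear regression; Ki calculated from IC50, probe Kd and protein/probe concentrations.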

pIC50: < 6.00
Structure (SMILES): CN(C)CC[C@H](CSc1ccccc1)Nc1ccc(S(=O)(=O)NC(=O)c2ccc(N3CCN(Cc4ccccc4-c4ccc(Cl)cc4)CC3)cc2)cc1[N+](=O)[O-] [ABT 737]
